Earlier results in article PMC4728608, “A Cell-Penetrating Peptide with a Guanidinylethyl Amine Structure Directed to Gene Delivery” (Scientific Reports, 2016).

Settings: cited from earlier work
Source text: The unnatural amino acid described herein was a lysine (Lys) derivative with a guanidinylethyl (GEt) group in the side chain amine [Lys(GEt)] (Fig. 1).

Structure (SMILES): N=C(N)NCCC[C@H](N)C(=O)O [Arg, Arginine]
- pKa of protonated side chain (guanidine of Arg, primary amine of Lys): 12.5
